Experimental data: PMC6209770 (Frontiers in Pharmacology, 2018)

Protein sequences, listed by entry. Tags and fused reporters are not part of them.
UniProt P14416, whole entry: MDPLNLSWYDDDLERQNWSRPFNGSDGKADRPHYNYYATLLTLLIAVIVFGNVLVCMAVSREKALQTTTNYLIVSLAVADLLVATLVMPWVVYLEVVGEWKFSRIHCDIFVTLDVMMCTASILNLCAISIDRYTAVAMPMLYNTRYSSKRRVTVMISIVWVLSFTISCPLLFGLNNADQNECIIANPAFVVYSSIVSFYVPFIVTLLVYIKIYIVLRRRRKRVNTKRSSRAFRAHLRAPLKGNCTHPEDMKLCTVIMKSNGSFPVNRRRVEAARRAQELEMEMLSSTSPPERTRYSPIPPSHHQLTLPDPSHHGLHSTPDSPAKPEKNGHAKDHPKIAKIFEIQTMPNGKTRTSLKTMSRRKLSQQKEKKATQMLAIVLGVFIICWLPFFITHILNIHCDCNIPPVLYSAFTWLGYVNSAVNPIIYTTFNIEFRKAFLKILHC
UniProt P08908, whole entry: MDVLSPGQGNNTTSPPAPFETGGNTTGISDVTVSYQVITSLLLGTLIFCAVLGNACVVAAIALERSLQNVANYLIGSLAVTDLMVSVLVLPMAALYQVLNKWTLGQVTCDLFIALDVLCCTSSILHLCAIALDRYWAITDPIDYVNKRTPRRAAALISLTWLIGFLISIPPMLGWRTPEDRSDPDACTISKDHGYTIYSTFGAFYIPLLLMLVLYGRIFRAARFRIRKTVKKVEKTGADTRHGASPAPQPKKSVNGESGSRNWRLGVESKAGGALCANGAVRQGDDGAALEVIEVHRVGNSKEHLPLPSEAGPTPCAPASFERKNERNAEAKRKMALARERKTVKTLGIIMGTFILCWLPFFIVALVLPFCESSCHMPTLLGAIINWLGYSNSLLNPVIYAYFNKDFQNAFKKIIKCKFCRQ
UniProt P28223, whole entry: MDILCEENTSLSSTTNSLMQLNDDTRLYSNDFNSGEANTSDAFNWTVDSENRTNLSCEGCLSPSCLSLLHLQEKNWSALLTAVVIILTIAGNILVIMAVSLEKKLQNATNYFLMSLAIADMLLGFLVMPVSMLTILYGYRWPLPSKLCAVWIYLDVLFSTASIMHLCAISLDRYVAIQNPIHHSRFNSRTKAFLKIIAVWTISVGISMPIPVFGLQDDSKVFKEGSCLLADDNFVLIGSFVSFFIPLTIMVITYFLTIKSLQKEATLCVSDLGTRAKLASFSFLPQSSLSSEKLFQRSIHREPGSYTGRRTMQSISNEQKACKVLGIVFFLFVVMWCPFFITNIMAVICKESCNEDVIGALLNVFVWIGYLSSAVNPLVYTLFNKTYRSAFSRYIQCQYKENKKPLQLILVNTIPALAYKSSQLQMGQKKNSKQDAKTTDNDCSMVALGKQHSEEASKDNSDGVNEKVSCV
UniProt P34969, whole entry: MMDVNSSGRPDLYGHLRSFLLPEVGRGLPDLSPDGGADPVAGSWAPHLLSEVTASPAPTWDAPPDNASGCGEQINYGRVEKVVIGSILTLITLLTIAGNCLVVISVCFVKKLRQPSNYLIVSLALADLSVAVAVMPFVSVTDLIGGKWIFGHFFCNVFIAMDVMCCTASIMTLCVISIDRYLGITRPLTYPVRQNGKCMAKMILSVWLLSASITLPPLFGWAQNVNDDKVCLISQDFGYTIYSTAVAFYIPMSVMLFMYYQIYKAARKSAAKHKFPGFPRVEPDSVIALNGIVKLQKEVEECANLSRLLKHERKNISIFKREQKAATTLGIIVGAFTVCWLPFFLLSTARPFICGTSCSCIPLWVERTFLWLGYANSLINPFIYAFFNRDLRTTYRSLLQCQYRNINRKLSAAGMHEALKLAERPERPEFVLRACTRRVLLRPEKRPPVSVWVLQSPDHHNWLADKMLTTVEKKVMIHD

How the values were obtained:
D2 receptor [1] = molecular target: T1, D2 receptor (Homo sapiens, UniProt P14416); assay: biochemical
mice [2] = assay: Four plate test after pretreatment with pCPA, WAY-100635 or AMPT; settings: mouse, in vivo
mice [3] = assay: Elevated plus maze test; settings: mouse, in vivo
5-HT1A receptor [4] = molecular target: T2, 5-HT1A receptor (Homo sapiens, UniProt P08908); assay: Tango LiveBLAzer β-arrestin recruitment assay, HTR1A-bla U2OS cells; settings: for Emax: U2OS
5-HT7 = settings: cited from earlier work
5-HT1A receptor [5] = molecular target: T2, 5-HT1A receptor; assay: SureFire ERK-phosphorylation AlphaLISA assay, CHO-5HT1A cells
GABAA receptor = settings: read-out: GABAA receptors Ki ± SEM; rat cerebral cortex, [3H]-muscimol 1 nM
rats = settings: rat, in vivo; cited from earlier work
[6] = in vivo; cited from earlier work
5-HT2A = settings: cited from earlier work
mice [7] = assay: Four plate test; settings: mouse, in vivo
Description: The four plate test was performed on mice according to the method previously described ([Aron et al., 1971]; [Bourin et al., 2005]; [Pytka et al., 2016b]). Mice were placed individually in the four plate apparatus connected to the power source. […] If the mouse continued running, it received no new shock for the following 3 s.

5-HT2A receptor = 5-HT2A receptor (Homo sapiens, UniProt P28223); assay: cell-based; format: cell-based
[8] = molecular target: human serotonin 5-HT1A receptor (Homo sapiens, UniProt P08908); assay: cAMP assay (TR-FRET), CHO-K1 cells
α1 = settings: cited from earlier work
5-HT7 receptor = 5-HT7 receptor (Homo sapiens, UniProt P34969); assay: Functional assay, intrinsic activity at 5-HT7; format: cell-based
D2 receptor [9] = molecular target: T1, D2 receptor; assay: cell-based
mice [10] = assay: Spontaneous locomotor activity; settings: mouse, in vivo
mice [11] = settings: mouse, in vivo
5-HT1A receptor [12] = molecular target: T2, 5-HT1A receptor; design: expressed in transfected cells; host or cells: CHO (CHO-5HT1A); method as in Kubacka et al., 2016; settings: cited from earlier work
5-HT6 = settings: cited from earlier work
5-HT3 receptors = settings: cited from earlier work
α2-adrenergic receptor = settings: read-out: α2 receptors Ki ± SEM; rat cerebral cortex, [3H]-clonidine 0.2 nM
[13] = read-out: Antagonist mode Emax %

COc1ccccc1N1CCN(CCCOc2cc(C)ccc2C)CC1.Cl [HBK-17, 1-[(2,5-dimethylphenoxy)propyl]-4-(2-methoxyphenyl)piperazine hydrochloride]
Ki (D2 receptor [1]): 51.4 ± 0.7 nM | Activity of HBK-17 (punished crossings) after pCPA pretreatment (mice [2]): abolished | Effect of HBK-17 (punished crossings) after AMPT pretreatment (mice [2]): did not influence | Effect of HBK-17 (punished crossings) after WAY-100635 pretreatment (mice [2]): antagonized | Increase in number of punished crossings (mice [2]): 76% | Increase in number of punished crossings vs non-treated control (mice [2]): 84.2% and 60.0% | Increase in number of open arm entries vs non-treated control (mice [3]): 28.6% | Increase in time spent in the open arms vs non-treated control (mice [3]): 38.9% | EC50 (5-HT1A receptor [4]): 324 nM | Emax (5-HT1A receptor [4]; read-out: Agonist mode Emax %): 94% | Emax (5-HT1A receptor [4]; [13]): 29% | Affinity for 5-HT7 (5-HT7): high affinity | EC50 (5-HT1A receptor [5]): 14.1 nM | IC50 (5-HT1A receptor [5]): 200 nM | Kb (5-HT1A receptor [5]): 29 nM | Emax (5-HT1A receptor [5]; read-out: Agonist mode Emax %): 40% | Emax (5-HT1A receptor [5]; [13]): 35% | Ki (GABAA receptor): > 10000 nM | Antiarrhythmic properties in adrenaline-induced arrhythmia (rats): strong antiarrhythmic properties | ED50, sedative properties [6]: 15.0 mg/kg | Affinity for 5-HT2A (5-HT2A): moderate | Increase in the number of punished crossings vs non-treated control (mice [7]): 70.9% | 5-HT2A blockade weaker than reference compound (5-HT2A receptor): 1228.1 fold | IC50 (5-HT2A receptor): 11200 nM | Kb (5-HT2A receptor): 700 nM | Emax (5-HT2A receptor; read-out: Agonist mode Emax %): 1% | Emax (5-HT2A receptor; [13]): 58% | IC50 [8]: 158 nM | Kb [8]: 39 nM | Emax ([8]; CHO-K1, read-out: Agonist mode Emax %): 1% | Emax ([8]; CHO-K1, read-out: Antagonist mode Emax %): 4% | Affinity for α1 (α1): high affinity | IC50 (5-HT7 receptor): 123 nM | Kb (5-HT7 receptor): 39 nM | Emax (5-HT7 receptor; read-out: Agonist mode Emax %): 18% | Emax (5-HT7 receptor; [13]): 11% | IC50 (D2 receptor [9]): 22.4 nM | Kb (D2 receptor [9]): 6.63 nM | Emax (D2 receptor [9]; read-out: Agonist mode Emax %): 2% | Emax (D2 receptor [9]; [13]): 0% | Influence on locomotor activity (mice [10]): did not influence | Number of crossings ± SEM (mice [10]; 5 mg/kg): 30.9 and 23.3 and 41.1 | Latency time to the first hind paw or/and jumping response (mice [11]): did not increase | Agonist mode Emax % (5-HT1A receptor [12]): 1^a % | Antagonist mode Emax % (5-HT1A receptor [12]): 4^a % | Antagonist mode pIC50 (5-HT1A receptor [12]): 8^a | Kb (5-HT1A receptor [12]; read-out: Antagonist mode Kb): 6.9 nM | Affinity for 5-HT6 (5-HT6): very low | Affinity for 5-HT3 receptors (5-HT3 receptors): very low | Ki (α2-adrenergic receptor): 17800 ± 1.5 nM

Where “and” joins values, the source holds several entries; their conditions need not be identical. Equal values may be shown once. Read-outs that look alike come from different tables or passages of the source. Marks after values point to notes of the source that are not given here.
